The target of the assay is T1, γ-TTP (α-tocopherol transfer protein A156L) (Homo sapiens, UniProt P49638, A156L).
T1 sequence (P49638 1-278 A156L): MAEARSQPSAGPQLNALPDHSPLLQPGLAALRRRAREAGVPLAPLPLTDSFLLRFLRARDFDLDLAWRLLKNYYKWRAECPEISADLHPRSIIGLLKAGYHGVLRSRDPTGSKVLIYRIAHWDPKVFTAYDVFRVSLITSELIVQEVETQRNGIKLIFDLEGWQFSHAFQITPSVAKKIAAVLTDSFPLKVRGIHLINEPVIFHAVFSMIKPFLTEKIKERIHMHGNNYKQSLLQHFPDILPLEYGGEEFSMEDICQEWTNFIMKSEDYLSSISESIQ
Nature of the assay: FRET ligand transfer to/from liposomes. In kind it is binding.

The structures appear in SMILES notation.

In turn, `Cc1c(C)c2c(c(C)c1O)CC[C@@](C)(CCC[C@H](C)CCC[C@H](C)CCCC(C)C)O2` [α-tocopherol] had a Kp of 3.08.

The values are drawn from publication PMC7677715 (Redox Biology, 2020).
